Reference: ChEMBL document CHEMBL1773006, “Enone- and chalcone-chloroquinoline hybrid analogues: in silico guided design, synthesis, antiplasmodial activity, in vitro metabolism, and mechanistic studies” (J Med Chem, 2011)

What was measured:
[1] = tested on: Liver; assay: Half life in mouse liver microsomes assessed as compound degradation at 1 uM by LC-MS analysis in presence of NADPH and UDPGA; type: ADME, Microsome
[2] = Ratio of compound IC50 to hematin IC50 for inhibition of beta-hematin formation

Structure (SMILES) | t1/2 [1] [min] | Ratio IC50 [2]
CCN(CC)CCCC(C)Nc1ccnc2cc(Cl)ccc12 (configuration not stated) [CHLOROQUINE] | 177 | –
Clc1ccc2c(N3CCNCC3)ccnc2c1 | – | > 5
